Test: Henry solubility constant Hcp at 298.15 K (mol/(m3 Pa))
Settings: reference: Hiatt (2013)

| Henry solubility constant Hcp | SMILES |
| --- | --- |
| 0.15 | c1ccc2cccc-2cc1 [azulene] |
| 0.00079 | CCl [chloromethane] |

— Sander's compilation of Henry's law constants (doi:10.1021/je3010535)
